Measured affinities in a library of Ab-14 heavy chain variants

Antigen: PDVDLGDISGINAS, a 14-residue peptide of the SARS-CoV-2 spike HR2 region.

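The starting antibody came from a phage panning campaign against this peptide. Variants in AAYL49 differ from the parent at up to three CDR positions; double and triple changes were sampled at random. In AlphaSeq, yeast of one mating type display the scFv and yeast of the other type display the target. Binding brings cells together so that they mate, and sequencing counts the barcode pairs among the diploids. Scores were corrected for input abundance and mapped to Kd with protein pairs of known affinity run in the same pool. Mating was done three times.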

Ab-14 is the parent antibody, in scFv form: VH, then three GGGGS repeats, then VL. The light chain is unchanged in all variants.
VH: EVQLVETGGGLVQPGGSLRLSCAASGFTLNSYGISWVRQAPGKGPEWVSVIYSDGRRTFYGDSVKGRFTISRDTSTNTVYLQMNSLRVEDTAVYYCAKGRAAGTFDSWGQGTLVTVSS
VL: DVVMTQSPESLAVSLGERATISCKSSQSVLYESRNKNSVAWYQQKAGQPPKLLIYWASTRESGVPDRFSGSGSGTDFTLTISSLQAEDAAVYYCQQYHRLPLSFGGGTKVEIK

Substitutions are numbered in sequence along the VH above, starting at 1 (not Kabat). Every variant below is changed at I51 of the VH (sequential numbering). Values are apparent Kd, the geometric mean of the replicates that gave a signal; lower means stronger binding. "nd" means that the variant was in the library but no mating with the target was seen in any replicate; the authors take this as a sign of poor binding, and no number exists. For reference, the parent read 4.4 nM as the reference entry and 13 µM (one replicate of three) as a member of this library.

Variant L29P+Y32Q+I51R showed nd (0 of 3 replicates; controls 1 of 9). For I51M+S53G+V64A, the assay gave 2.7 µM (2 of 3 replicates; controls 2 of 9). With I51M+D62V+F105C the result was nd (0 of 3 replicates; controls 0 of 9). Variant G33M+I51H+T58L showed 120 µM (2 of 3 replicates; controls 5 of 9). Variant I51P+D106P gave nd (0 of 3 replicates; controls 2 of 9).

Variant I51Q+D62S showed nd (0 of 3 replicates; controls 2 of 9). Variant I51H+G99W+D106C showed nd (0 of 3 replicates; controls 0 of 9). Variant F27C+I51F+G103V showed nd (0 of 3 replicates; controls 0 of 9). For V50I+I51M+A101L, the assay gave 48 nM (3 of 3 replicates; controls 1 of 9). For I51D+Y52C+G61M, the assay gave 260 µM (1 of 3 replicates; controls 3 of 9).

Variant I51H+D62V showed nd (0 of 3 replicates; controls 0 of 9). Variant G26C+I51S+D54G gave nd (0 of 3 replicates; controls 0 of 9). For I51D+Y52T+S63H, the assay gave nd (0 of 3 replicates; controls 0 of 9). With N30R+I51H+G99Y the result was nd (0 of 3 replicates; controls 0 of 9). Variant I51T+R57I+S107Q showed 38 µM (2 of 3 replicates; controls 2 of 9).

With I51E+V64E+S107D the result was nd (0 of 3 replicates; controls 0 of 9). For S31P+I51P+F105G, the assay gave 6.1 µM (2 of 3 replicates; controls 0 of 9). Variant F27H+N30D+I51T showed nd (0 of 3 replicates; controls 0 of 9). Variant G26N+I51D+R56V gave 32 µM (1 of 3 replicates; controls 1 of 9). With I51L+G55Q+R100W the result was 62 µM (1 of 3 replicates; controls 1 of 9).

Variant L29K+I51D+D54A gave nd (0 of 3 replicates; controls 0 of 9). For F27P+I51G+D62L, the assay gave nd (0 of 3 replicates; controls 0 of 9). Variant S35E+I51R+T58H gave nd (0 of 3 replicates; controls 0 of 9). Variant S31H+I51R+T104Q showed 5.3 µM (1 of 3 replicates; controls 0 of 9). With S35W+I51D+D62F the result was nd (0 of 3 replicates; controls 0 of 9).

Variant S35W+I51Q showed nd (0 of 3 replicates; controls 0 of 9). For V50T+I51P+D62R, the assay gave nd (0 of 3 replicates; controls 0 of 9). With I34W+I51V+F59H the result was 1.8 µM (1 of 3 replicates; controls 4 of 9). With I51F+G55I+G103Q the result was 47 µM (1 of 3 replicates; controls 0 of 9). Variant I51Y+V64G gave 1.8 µM (1 of 3 replicates; controls 2 of 9).

Variant F27Q+I51S+G103E gave 31 µM (2 of 3 replicates; controls 4 of 9). For N30F+G33L+I51M, the assay gave 3.9 µM (3 of 3 replicates; controls 6 of 9). Variant I51D+G55W+A102F gave 43 µM (1 of 3 replicates; controls 2 of 9). With I34T+V50I+I51E the result was 6.8 µM (3 of 3 replicates; controls 3 of 9). With N30R+I51D+G61A the result was 4.4 µM (1 of 3 replicates; controls 2 of 9).

For F27G+I51T+K65I, the assay gave nd (0 of 3 replicates; controls 5 of 9). For I51Y+S63G+A102Q, the assay gave nd (0 of 3 replicates; controls 2 of 9). Variant I51T+S63T+G99S showed 57 µM (1 of 3 replicates; controls 2 of 9). Variant L29R+I51V gave 3.2 µM (1 of 3 replicates; controls 0 of 9). Variant I51T+D106H gave nd (0 of 3 replicates; controls 1 of 9).

With G26W+I51W+D106R the result was nd (0 of 3 replicates; controls 1 of 9). Variant I51K+K65M+D106V gave nd (0 of 3 replicates; controls 2 of 9). For I51G+R57C+A101V, the assay gave nd (0 of 3 replicates; controls 0 of 9). For I51H+R56N+R100Y, the assay gave nd (0 of 3 replicates; controls 0 of 9). For I51W+R56A+D62T, the assay gave 6.4 µM (1 of 3 replicates; controls 1 of 9).

For F27N+I51A+Y52I, the assay gave nd (0 of 3 replicates; controls 0 of 9). Variant G33V+I51Y+T58H showed 9.4 µM (3 of 3 replicates; controls 7 of 9). Variant I51A+D54W+A102T gave 8.8 µM (2 of 3 replicates; controls 1 of 9). Variant L29G+I51N+F59L gave nd (0 of 3 replicates; controls 1 of 9). For S31I+I51P+A102M, the assay gave nd (0 of 3 replicates; controls 2 of 9).

Variant I51P+G61K+D106N gave nd (0 of 3 replicates; controls 0 of 9). For S35M+I51Q, the assay gave nd (0 of 3 replicates; controls 0 of 9).

Repeated from above, the 4 best binders with a signal in all replicates:

changes,apparent Kd,detected,signal with controls
V50I+I51M+A101L,48 nM,3/3,1/9
N30F+G33L+I51M,3.9 µM,3/3,6/9
I34T+V50I+I51E,6.8 µM,3/3,3/9
G33V+I51Y+T58H,9.4 µM,3/3,7/9

Nonspecific signal, from three strains lacking the peptide, appeared in 15% of pairings of library AAYL49, centred on 11 µM (5% of these signals below 680 nM); values are not corrected for it. Also given: how often the same scFv was detected with the empty control strains.

Data: MIT Lincoln Laboratory AlphaSeq set, Engelhart et al. 2022, doi:10.1038/s41597-022-01779-4, as distributed in FLAb.